# scFv variants of Ab-95 (light chain) against a SARS-CoV-2 spike peptide

Target: peptide PDVDLGDISGINAS, taken from heptad repeat 2 (HR2) of SARS-CoV-2 spike.

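The starting antibody came from a phage panning campaign against this peptide. Variants in AAYL52 differ from the parent at up to three CDR positions; double and triple changes were sampled at random. AlphaSeq pools MATa yeast showing the antibodies with MATalpha yeast showing the peptide. Binding brings cells together so that they mate, and sequencing counts the barcode pairs among the diploids. Read counts were normalised to the haploid input and turned into Kd by a linear fit to BCL2-family pairs of known affinity, for each replicate. There are three technical replicates.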

Each scFv is VH, three GGGGS repeats, VL, as in the parent Ab-95, and differs from it in the CDRs of the light chain only.
VH: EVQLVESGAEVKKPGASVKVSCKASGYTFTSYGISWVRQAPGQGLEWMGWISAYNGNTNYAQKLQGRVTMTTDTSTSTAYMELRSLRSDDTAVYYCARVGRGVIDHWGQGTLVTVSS
VL: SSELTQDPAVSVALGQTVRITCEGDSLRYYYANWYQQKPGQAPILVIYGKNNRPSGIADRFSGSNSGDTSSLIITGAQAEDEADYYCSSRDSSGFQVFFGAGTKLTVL

Positions count from residue 1 of the parent VL; R90A puts A in place of R.
Values are log10 of the apparent Kd in nM; lower means stronger binding.
The mean shown is taken over the replicates in which the pair was detected.
A pair that was not seen in any replicate is written "no signal"; this usually means weak binding, but a binder can also be missed.
As a blank, each scFv also met three strains without target: over library AAYL52, 28% of these pairings were detected, typically at 3.91 and seldom below 2.90.

changes,"mean, log10 nM",replicates with signal
R90A/S93A/V97M,2.97,3/3
K50F/S88K/F98N,no signal,0/3
K50Q/S89R/S93E,3.76,3/3
Y31E/R90I/V97Y,1.94,3/3
D25E/N52H/R53L,3.60,3/3
S26M/Y30K/F95K,3.76,3/3
N33G/D91E/Q96I,no signal,0/3
Y30D/Y31R,2.19,3/3
Y29E/S93F,2.85,3/3
L27H/N33Q/R53G,4.17,3/3
S89Q/S93D/F98L,no signal,0/3
E23S/F95C/V97Q,2.23,3/3
L27M/N33V/F95H,no signal,0/3
R28C/R90Q/G94N,3.46,3/3
R90I/G94E,4.22,1/3
R28I/S89F/S92L,3.00,1/3
L27Y/Y31P/G49I,3.85,2/3
S26M/L27A/N51F,4.06,2/3
Y30M/N33Y/V97L,3.74,1/3
D91S/S92F/F98I,2.41,3/3
N33Q/S89A/G94S,5.18,3/3
G24M/Y30K/S92Q,3.45,3/3
G24S/N51Q/F98E,4.10,1/3
Y30F/A32I/V97K,no signal,0/3
Y31H/N51T/F98K,no signal,0/3
Y29M/P54N/F95P,2.83,1/3
K50C/D91F/S92T,4.46,1/3
S26H/R28A/Y31K,3.47,3/3
Y29Q/N51D/V97L,3.43,3/3
N51L/R53A/S89C,4.30,1/3
E23H/R28G/Q96D,2.27,3/3
Y29R/R53E/D91E,3.93,2/3
K50Q/N51Y/R53A,3.33,2/3
R28T/S88F/V97D,no signal,0/3
G49N/S93F/F95L,2.54,3/3
K50H/R53Y/S89E,no signal,0/3
G24V/S26Q/S55R,4.35,2/3
A32K/G94E/F95H,3.60,3/3
N52R/F98G,4.26,1/3
N52Y/R90A/F95C,3.67,1/3
S26D/N33Q/G49K,4.27,2/3
A32V/N51W/P54W,4.40,2/3
Y30Q/Y31E/S88T,0.98,3/3
L27I/N52W/R53C,5.07,1/3
D25S/R90D/V97P,3.88,1/3
K50G/R53F/S92Q,2.88,2/3
N33V/S88Q/V97P,3.45,1/3
S26Q/Y29W/S93R,4.00,1/3
D25R/Y29N/P54M,1.32,3/3
A32T/R53P/S93L,no signal,0/3
R28V/Y30P/K50V,2.50,3/3
Y30N/K50E/Q96Y,0.43,3/3
L27A/Y30T/P54L,3.64,3/3
Y29M/Y31A,2.11,3/3
R90Q/S92R,2.06,3/3
G24M/G49E/S92V,4.61,1/3
Y29M/S89H/S93T,2.98,3/3
K50H/P54N/S92P,3.11,3/3
E23G/D25E/F98A,2.54,3/3
R28Y/S92N/S93W,3.93,3/3
N33Q/N52S/S88W,no signal,0/3
Y30G/G49Q/V97L,1.20,3/3
D25Y/R53D/S92K,5.78,1/3
E23V/N51H/F95Q,3.29,3/3
R90L/D91I/S92P,2.75,3/3
G24I/N51T/S89M,no signal,0/3
L27R/R28I/S88I,4.39,3/3
L27K/Y31G/R90I,3.74,3/3
S93H/F95P,2.09,3/3
L27C/Q96F/F98L,2.74,1/3
Y30I/R90K,4.05,2/3
G49I/S55Y,3.43,1/3
N33S/N51S/N52P,no signal,0/3
Y31K/S93L/F95E,no signal,0/3
N51S/P54T/S88R,4.28,1/3
A32E/G49D/G94S,3.75,2/3
S26G/Y29H/N51T,3.07,3/3
L27G/N52L,4.02,2/3
D91I/G94K/Q96W,2.39,3/3

The first 10 entries again:

changes,"mean, log10 nM",replicates with signal
R90A/S93A/V97M,2.97,3/3
K50F/S88K/F98N,no signal,0/3
K50Q/S89R/S93E,3.76,3/3
Y31E/R90I/V97Y,1.94,3/3
D25E/N52H/R53L,3.60,3/3
S26M/Y30K/F95K,3.76,3/3
N33G/D91E/Q96I,no signal,0/3
Y30D/Y31R,2.19,3/3
Y29E/S93F,2.85,3/3
L27H/N33Q/R53G,4.17,3/3

From the AlphaSeq antibody data of Engelhart et al. 2022 (doi:10.1038/s41597-022-01779-4), copy in the FLAb collection.